## AlphaSeq binding of Ab-14 heavy chain variants to a spike HR2 peptide

Values reported by Li et al. 2023, doi:10.1038/s41467-023-39022-2 (FLAb copy).

Antigen: PDVDLGDISGINAS, a 14-residue peptide of the SARS-CoV-2 spike HR2 region.

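The parent was found by panning a naive human phage display library on the peptide. This is the validation round: designs drawn from the data on random variants, tested in the same kind of assay. Several design methods are mixed in this list. In AlphaSeq, yeast of one mating type display the scFv and yeast of the other type display the target. Pairs that bind mate more often; barcode pairs of the diploids are counted by sequencing. Scores were corrected for input abundance and mapped to Kd with protein pairs of known affinity run in the same pool. Mating was done six times.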

Parent scFv Ab-14: VH joined to VL by three GGGGS repeats. Changes lie in the heavy chain CDRs alone.
VH: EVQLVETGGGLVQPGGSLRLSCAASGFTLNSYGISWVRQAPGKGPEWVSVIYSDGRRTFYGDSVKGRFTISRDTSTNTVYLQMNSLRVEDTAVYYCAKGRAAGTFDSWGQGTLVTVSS
VL: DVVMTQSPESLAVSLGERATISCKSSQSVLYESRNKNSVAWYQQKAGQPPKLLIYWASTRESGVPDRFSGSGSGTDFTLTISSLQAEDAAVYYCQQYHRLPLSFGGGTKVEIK

The parent's heavy chain CDRs are GFTLNSYGIS, VIYSDGRRTFYGDSVK, GRAAGTFDS; each variant's own CDRs replace them letter for letter.
Numbers give log10(Kd / nM), so 0 is 1 nM and 3 is 1 µM. Smaller is tighter.
Where no diploid with the target was found in that replicate, the entry reads "ND": below detection, most likely a poor binder, though not proof of it.

| CDR-H1 | CDR-H2 | CDR-H3 | log10 Kd, replicates | signal with controls |
|---|---|---|---|---|
| GFDLDEYGIS | VIYADGMRTSYADSVK | GNNAGTFDV | 0.41 / 0.00 / -0.23 / -0.51 / -0.30 / 0.39 | 0 of 18 |
| GFDLNEYGIS | VIYADGRRTFYADSVK | GENAGTFFS | ND / ND / 0.88 / ND / ND / -0.09 | 0 of 18 |
| GFDIDEYGIS | VIYADGTRTAYDNSVK | GQMAGFFTN | ND / ND / 2.65 / ND / ND / ND | 0 of 18 |
| GFPIDEYGIS | VIYADGRRTVYSDNVK | GNYGASIII | ND / ND / ND / ND / ND / ND | 0 of 18 |
| GFNLDEYGIS | VIYADGKRTAYADSVK | GEVAGTFDV | 0.46 / 0.54 / -0.34 / -0.17 / 0.05 / 0.52 | 0 of 18 |
| GNNLDEYGIS | VIYADGQRSYYAQDVK | GKTGDNAFI | ND / ND / ND / ND / ND / ND | 0 of 18 |
| GFDLEDYGIS | VIYADGKRTAYADSVK | GEAAGTFDL | -0.72 / -0.34 / -0.56 / -0.27 / -0.49 / -0.55 | 1 of 18 (1.18) |
| GFTLNSIGIS | VIYSDGRRTFYSDSVK | GRAGGTFDS | ND / 2.94 / 1.18 / 1.99 / 3.49 / 1.42 | 0 of 18 |
| GFTLNEYGIS | VIYSDGRRTFYGDSVK | GEQAGTFDS | 0.95 / 1.78 / 1.62 / 0.47 / 0.08 / 1.54 | 0 of 18 |
| GFTLNSYGIQ | VIYSDGRRTFYSDSVK | GRAAGTFDS | ND / ND / ND / ND / ND / ND | 0 of 18 |
| GFTLNDYGIS | VIYSDGRRTFYGDSVK | GEAAGTFDK | 2.83 / 2.42 / 2.05 / 2.88 / 1.72 / 3.30 | 0 of 18 |
| GFTLNSYGSS | VIYSDGMRTFYGDSVK | GRAAGTFDS | ND / ND / ND / ND / ND / ND | 1 of 18 (0.55) |
| GFSLNEYGIS | VIYSDGRRTFYRDHVK | GRTAGTFDS | 0.70 / ND / ND / 1.70 / ND / 2.18 | 0 of 18 |
| GFTLDSYGIS | VIYSDGRRTFYADSVK | GRVAGTFDT | 0.19 / 0.21 / -0.06 / 0.01 / -0.03 / 0.24 | 0 of 18 |
| GFDLNSYGIS | VIYSDGRRTFYGDDVK | GRTAGTFDD | ND / ND / ND / ND / ND / ND | 0 of 18 |
| GFTLDSYGIS | VIYSDGYRTFYGDSVK | WDAAGTFDI | ND / ND / ND / ND / ND / ND | 0 of 18 |
| GFDLDEYGIS | VIYADGQRTAYSDSVK | GNVAGTFDI | ND / ND / ND / -1.12 / ND / ND | 0 of 18 |
| GFTPLSYGIS | VIYSDGRRTFYGDSVK | GRAAGTFDS | ND / ND / ND / ND / ND / ND | 0 of 18 |
| GFELNSYGIS | VIYSDGRRTFYGDSVK | GLTAGTFDS | 0.62 / 0.56 / 0.39 / 0.94 / 0.79 / 0.63 | 1 of 18 (2.32) |
| GFELNMYGIS | VIYSDGRRTFYGDSVK | GQAAGTFDV | 0.70 / 0.35 / 0.31 / 1.67 / 0.70 / 1.02 | 1 of 18 (3.37) |
| GFDLNEYGIS | VIYADGQRTAYADSVK | GQLAGTFDT | -0.09 / 0.48 / 0.11 / -0.24 / -0.22 / 0.03 | 0 of 18 |
| GFELNSYGIS | VIYADGRRTFYGDSVK | GQAAGTFDF | ND / ND / ND / ND / ND / ND | 0 of 18 |
| GFDLNEYGIS | VIYADGMRQAVVQNVK | GKINVTDSV | ND / ND / ND / 1.92 / ND / ND | 0 of 18 |
| GFNLNSYGIS | VIYSDGRRTFYHDSVK | GKEAGTFDS | -0.62 / -1.15 / -0.58 / -1.31 / -0.10 / -0.98 | 0 of 18 |
| KFGLNEYGIS | VIYSDGRRTFYGDSVK | GRTAGTFDS | ND / 1.57 / ND / ND / ND / ND | 0 of 18 |
| GFTLNSYGIS | VIYSDGYRTFYSDSVK | GRAAGTFDS | 0.73 / 0.29 / 0.06 / -0.06 / 0.24 / 0.21 | 0 of 18 |
| GFTLQEYGIS | VIYSDGRRTFYGDQVK | GRAAVTFDQ | 1.14 / ND / 0.34 / 0.15 / -0.23 / 0.24 | 0 of 18 |
| HFTLNSYGIS | VIYSDGRKTCYGDSVK | GRAAGTFDS | ND / ND / ND / ND / ND / ND | 0 of 18 |
| GFTILSYGIS | VIYSDGRRTFYGDSVK | GRAAGTFDS | ND / 0.43 / 0.91 / 1.55 / 0.47 / ND | 1 of 18 (0.44) |
| GFDLNEYGIS | VIYSDGRRTFYLDSVK | GFAAGTFDS | 0.72 / 0.72 / 1.12 / 0.17 / 0.54 / 0.80 | 0 of 18 |
| GFTLNSYGIS | VIYPDGRRTFYGDSVK | GRAAGTIKS | ND / ND / ND / ND / ND / ND | 0 of 18 |
| GFDLNEYGIS | VIYADGRRTFYIDSVK | GEEAGTFNV | -0.12 / 0.08 / 0.07 / -0.01 / -0.57 / -0.34 | 0 of 18 |
| GFDLDEYGIS | VIYADGMRTFYTDSVK | GEAAGTFDL | 0.24 / -0.16 / 0.09 / -0.14 / -0.05 / 0.42 | 0 of 18 |
| GFALDEYGIS | VIYADGSRTVYAGDVK | GMLGVAFDM | ND / ND / ND / ND / 0.90 / ND | 0 of 18 |
| GFDLNEYGIS | VIYADGKRTAYADDVK | GQNAGTFDI | -0.27 / -0.72 / -0.88 / -0.23 / -0.97 / -0.63 | 0 of 18 |
| GFELNEYGIS | VIYSDGRRTFYGDSVK | GQAAGTFDS | 0.04 / 0.56 / 0.25 / -0.39 / 0.47 / 0.52 | 0 of 18 |
| GFTLNSYGIS | VIYSDGRRTAYGDSVK | GRAAGTFDS | 0.99 / 0.56 / 0.64 / 1.65 / 0.88 / 0.65; ND / ND / 1.41 / ND / ND / ND | 0 of 36 |
| GFTLNDYGIS | VGYSDGRRTQYIDSVK | GRAVGTFDS | ND / ND / ND / ND / ND / ND | 0 of 18 |
| GFWLNDYGIS | VIYSDGRRTFYHDSVK | GRTAGTFDC | ND / ND / ND / ND / ND / ND | 0 of 18 |
| GYDLDQYGIS | VIYADGMRSVYHDSVK | GHEGDTFYV | 0.89 / 0.65 / 0.87 / 0.30 / 1.12 / 0.64 | 0 of 18 |
| GFSLNSYGIS | VIYSDGRRTFYTDSVK | GSAAGTFDS | ND / 2.35 / 1.60 / ND / 1.20 / 1.65 | 0 of 18 |
| GFTLNQRGIS | VIYSDGRRTFYSDSVK | PCAAGFFDS | ND / ND / 0.47 / ND / ND / ND | 0 of 18 |
| GFDIQDYGIS | VIYADGSRTAYTNSVK | GVQGAFYGL | ND / ND / ND / ND / ND / ND | 0 of 18 |

From the list, the first 3 with no signal in any replicate:

CDR-H1,CDR-H2,CDR-H3,"log10 Kd, replicates",signal with controls
GFPIDEYGIS,VIYADGRRTVYSDNVK,GNYGASIII,ND / ND / ND / ND / ND / ND,0 of 18
GNNLDEYGIS,VIYADGQRSYYAQDVK,GKTGDNAFI,ND / ND / ND / ND / ND / ND,0 of 18
GFTLNSYGIQ,VIYSDGRRTFYSDSVK,GRAAGTFDS,ND / ND / ND / ND / ND / ND,0 of 18

Of ten entries with the parent sequence, four were seen in most replicates (averages 0.34 to 2.37), three in one and three in none, so single entries are noisy.
Nonspecific signal, from three strains lacking the peptide, appeared in 1% of pairings of all heavy chain designs, centred on 2.08 (5% of these signals below 0.84); values are not corrected for it. Also given: how often the same scFv was detected with the empty control strains, with their mean in brackets.
Values of this round are not directly comparable with the first-round values of the same sequences.
The authors' rule: three or more of the six replicates give a measured affinity, fewer mean a poor binder.
Where one sequence has several entries in the source, the replicates are listed entry by entry, parted by semicolons.